From PubChem BioAssay (NCI) come the findings set out here.

Test systems include MOLT-4 leukemia; SR leukemia; RPMI-8226 leukemia; OVCAR-8 ovarian; OVCAR-5 ovarian; OVCAR-4 ovarian; SK-OV-3 ovarian; IGROV1 ovarian; OVCAR-3 ovarian; HS 578T breast; NCI/ADR-RES ovarian; T-47D breast; BT-549 breast; MDA-MB-435 melanoma; SW-620 colon; MCF7 breast; HCT-116 colon; HCC-2998 colon; KM12 colon.
Holding throughout (experiment): NCI-60 one-dose screen, 48 h (100 = growth as untreated, 0 = no growth, -100 = all killed)
Conditions in all cases: 10 µM

Only a part is listed here, and it is no random draw. Some tests of the compounds listed are not included; inactive here does not mean inactive elsewhere.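 For each line, cells grew in 96-well plates with the test compound present at a single concentration for 48 hours.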 The source made the active and inactive calls. The calls were made as follows: active = growth percent below 10; inactive = the rest.

For the compound `COCc1c(CN(CCCl)CCCl)cnc(C)c1O`, the growth with MOLT-4 leukemia is inactive: 101%; with SR leukemia, inactive: 71.5%; with RPMI-8226 leukemia, inactive: 108%; with OVCAR-8 ovarian, inactive: 101%; with OVCAR-5 ovarian, inactive: 113%; with OVCAR-4 ovarian, inactive: 106%. For the same compound, the growth in the experiment with SK-OV-3 ovarian is inactive: 108%; with IGROV1 ovarian, inactive: 95.8%; with OVCAR-3 ovarian, inactive: 106%; in the experiment on HS 578T breast it was inactive: 101%; in the experiment with NCI/ADR-RES ovarian it was inactive: 102%; with T-47D breast, inactive: 102%. In addition, the growth was inactive: 100% in the experiment on BT-549 breast; inactive: 104% with MDA-MB-435 melanoma; inactive: 92.6% in the experiment with SW-620 colon; inactive: 85.1% in the experiment with MCF7 breast; inactive: 95.7% with HCT-116 colon; inactive: 103% with HCC-2998 colon. In the experiment on KM12 colon, the growth is inactive: 107%.
Consider `CCOc1ccc([N+](=O)[O-])cc1CN(CCCl)CCCl`, for which the growth in the experiment with MOLT-4 leukemia was inactive: 86.6%; in the experiment on SR leukemia, inactive: 68.1%; with RPMI-8226 leukemia, inactive: 98.3%; in the experiment on OVCAR-8 ovarian, inactive: 101%; in the experiment with OVCAR-5 ovarian, inactive: 98.8%; with OVCAR-4 ovarian, inactive: 107%. In addition, the growth was inactive: 108% in the experiment with SK-OV-3 ovarian; inactive: 90.3% in the experiment with IGROV1 ovarian; inactive: 103% in the experiment on OVCAR-3 ovarian; inactive: 95.3% in the experiment on HS 578T breast; inactive: 95.8% with NCI/ADR-RES ovarian; inactive: 103% in the experiment on T-47D breast. Also, the growth in the experiment with BT-549 breast was inactive: 90.6%; in the experiment with MDA-MB-435 melanoma, inactive: 106%; in the experiment on SW-620 colon it was inactive: 89.4%; with MCF7 breast, inactive: 85.8%; in the experiment with HCT-116 colon, inactive: 94.1%; in the experiment with HCC-2998 colon, inactive: 87.9%. Besides, the growth in the experiment on KM12 colon was inactive: 96.5%.
As for `CC(C)(C)N(CCCl)CCCl`, the growth in the experiment on MOLT-4 leukemia is inactive: 91.1%; in the experiment on SR leukemia, inactive: 83.4%; with RPMI-8226 leukemia it was inactive: 91.2%; with OVCAR-8 ovarian it was inactive: 100%; in the experiment on OVCAR-5 ovarian, inactive: 89.8%; in the experiment on OVCAR-4 ovarian, inactive: 94.6%. The growth was inactive: 109% with SK-OV-3 ovarian; inactive: 112% in the experiment with IGROV1 ovarian; inactive: 110% with OVCAR-3 ovarian; inactive: 109% in the experiment with NCI/ADR-RES ovarian; inactive: 104% in the experiment on T-47D breast; inactive: 113% in the experiment with BT-549 breast. In addition, the growth was inactive: 104% with MDA-MB-435 melanoma; inactive: 98% in the experiment on SW-620 colon; inactive: 95.6% in the experiment on MCF7 breast; inactive: 101% with HCT-116 colon; inactive: 106% with HCC-2998 colon; inactive: 119% in the experiment with KM12 colon.
As to `ClCCCCCC(CCl)NCCCl` (stereo not given), the growth in the experiment on MOLT-4 leukemia was inactive: 53.4%; with SR leukemia, inactive: 27.4%; with RPMI-8226 leukemia, inactive: 103%; with OVCAR-8 ovarian, inactive: 83%; in the experiment with OVCAR-5 ovarian it was inactive: 123%; in the experiment with OVCAR-4 ovarian it was inactive: 96.8%. Moreover, the growth with SK-OV-3 ovarian was inactive: 105%; in the experiment on IGROV1 ovarian, inactive: 90.7%; with OVCAR-3 ovarian, inactive: 103%; in the experiment on HS 578T breast, inactive: 108%; in the experiment with NCI/ADR-RES ovarian, inactive: 90.7%; in the experiment with T-47D breast, inactive: 86.7%. Also, the growth in the experiment on BT-549 breast was inactive: 104%; with MDA-MB-435 melanoma, inactive: 106%; in the experiment on SW-620 colon, inactive: 90%; in the experiment on MCF7 breast, inactive: 60.6%; in the experiment on HCT-116 colon it was inactive: 85.7%; with HCC-2998 colon, inactive: 78.3%. Further, in the experiment with KM12 colon, the growth was inactive: 94.8%.
On to `COc1ccc(N=C=S)cc1CN(CCCl)CCCl`, for which the growth is inactive: 21.1% with MOLT-4 leukemia; inactive: 22.5% with SR leukemia; inactive: 72.7% in the experiment on RPMI-8226 leukemia; inactive: 58.7% in the experiment on OVCAR-8 ovarian; inactive: 115% with OVCAR-5 ovarian; inactive: 96% with OVCAR-4 ovarian. Also, the growth in the experiment with SK-OV-3 ovarian is inactive: 65.6%; with IGROV1 ovarian it was inactive: 77.2%; in the experiment on OVCAR-3 ovarian, inactive: 75.3%; in the experiment on HS 578T breast it was inactive: 92.7%; in the experiment with NCI/ADR-RES ovarian, inactive: 76.8%; in the experiment with T-47D breast, inactive: 42.6%. Besides, the growth in the experiment with BT-549 breast is inactive: 71.2%; in the experiment with MDA-MB-435 melanoma, inactive: 88.3%; with SW-620 colon, inactive: 53.5%; in the experiment with MCF7 breast, inactive: 32.9%; in the experiment with HCT-116 colon, inactive: 63.7%; in the experiment on HCC-2998 colon, inactive: 71.7%. Besides, the growth in the experiment on KM12 colon is inactive: 87.9%.
For the compound `ClCCN(CCCl)Cc1ccsc1Br`, the growth with MOLT-4 leukemia is inactive: 33.5%; with SR leukemia, active: 6.72%; in the experiment with RPMI-8226 leukemia, inactive: 82%; with OVCAR-8 ovarian, inactive: 77.6%; in the experiment on OVCAR-5 ovarian it was inactive: 97.6%; with OVCAR-4 ovarian, inactive: 100%. The growth in the experiment with SK-OV-3 ovarian was inactive: 96.8%; with IGROV1 ovarian, inactive: 58.6%; in the experiment on OVCAR-3 ovarian it was inactive: 92.8%; in the experiment with HS 578T breast, inactive: 84%; with NCI/ADR-RES ovarian, inactive: 80%; with T-47D breast, inactive: 95.5%. The growth was inactive: 100% in the experiment with BT-549 breast; inactive: 99.6% with MDA-MB-435 melanoma; inactive: 58.8% in the experiment with SW-620 colon; inactive: 66.4% in the experiment on MCF7 breast; inactive: 86.3% in the experiment on HCT-116 colon; inactive: 80.2% in the experiment with HCC-2998 colon. For the same compound, the growth in the experiment with KM12 colon is inactive: 95%.
As to `COc1ccc([N+](=O)[O-])cc1CN(CCCl)CCCl`, the growth was inactive: 89.3% with MOLT-4 leukemia; inactive: 100% in the experiment on RPMI-8226 leukemia; inactive: 106% in the experiment with OVCAR-8 ovarian; inactive: 112% in the experiment with OVCAR-5 ovarian; inactive: 97.6% in the experiment with OVCAR-4 ovarian; inactive: 113% in the experiment with SK-OV-3 ovarian. For the same compound, the growth in the experiment with IGROV1 ovarian is inactive: 82.8%; with OVCAR-3 ovarian, inactive: 103%; in the experiment on HS 578T breast it was inactive: 103%; in the experiment on NCI/ADR-RES ovarian, inactive: 104%; in the experiment with T-47D breast it was inactive: 110%; with BT-549 breast, inactive: 103%. In addition, the growth in the experiment with MDA-MB-435 melanoma is inactive: 102%; in the experiment with SW-620 colon, inactive: 80.4%; in the experiment on MCF7 breast, inactive: 66.9%; with HCT-116 colon it was inactive: 92.3%; in the experiment with HCC-2998 colon, inactive: 91.5%; in the experiment on KM12 colon it was inactive: 103%.
For `CC[N+](C)(C)Cc1cccc(Cc2ccccc2)c1OC(=O)N(C)C`, the growth in the experiment on MOLT-4 leukemia is inactive: 97.8%; in the experiment with SR leukemia, inactive: 90%; with RPMI-8226 leukemia it was inactive: 103%; with OVCAR-8 ovarian, inactive: 111%; in the experiment with OVCAR-5 ovarian, inactive: 103%; with OVCAR-4 ovarian it was inactive: 108%. Also, the growth is inactive: 128% with SK-OV-3 ovarian; inactive: 95.4% with IGROV1 ovarian; inactive: 104% with OVCAR-3 ovarian; inactive: 111% in the experiment with HS 578T breast; inactive: 97.5% in the experiment with NCI/ADR-RES ovarian; inactive: 101% in the experiment on T-47D breast. In addition, the growth with BT-549 breast is inactive: 104%; in the experiment with MDA-MB-435 melanoma, inactive: 105%; in the experiment with SW-620 colon it was inactive: 103%; in the experiment with MCF7 breast, inactive: 96.7%; in the experiment on HCT-116 colon it was inactive: 97.2%; in the experiment on HCC-2998 colon it was inactive: 103%. For the same compound, in the experiment with KM12 colon, the growth was inactive: 99.9%.
